The species named for experiment [1] is Homo sapiens. Put plainly: Selectivity ratio of Ki for human recombinant carbonic anhydrase 1 to Ki for human recombinant carbonic anhydrase 2.
The species named for experiment [2] is Homo sapiens. Put plainly: Selectivity ratio of Ki for human recombinant carbonic anhydrase 12 to Ki for human recombinant carbonic anhydrase 2.
The species entered for experiment [3] is Homo sapiens. Put plainly: Selectivity ratio of Ki for human recombinant carbonic anhydrase 9 to Ki for human recombinant carbonic anhydrase 2.
Another experiment concerns the target Carbonic anhydrase 2 (Homo sapiens, UniProt P00918). Put plainly: Inhibition of human recombinant carbonic anhydrase 2 preincubated for 15 mins by stopped flow CO2 hydration method.

We go through one compound from ChEMBL document CHEMBL3608251, “Probing the 'bipolar' nature of the carbonic anhydrase active site: aromatic sulfonamides containing 1,3-oxazol-5-yl moiety as picomolar inhibitors of cytosolic CA I and CA II isoforms” (Eur J Med Chem, 2015).

Each structure is given as a SMILES string.

For `Cc1ncc(-c2ccc(S(N)(=O)=O)cc2)o1`, the Ratio Ki in the experiment filed under Homo sapiens [1], in the experiment listed under Homo sapiens [2] and in the experiment filed under Homo sapiens [3] was 100 each time. Besides, the Ki at Carbonic anhydrase 2 amounted to 0.05 nM.

The term Ki denotes a dissociation constant, usually derived from enzyme kinetics or from competition with a known ligand.
